Like-named read-outs stand apart in the source and are kept apart here.
B1: δ subunit of the E. coli clamp loader (γ complex), wild type (natural protein)
chain: MIRLYPEQLRAQLNEGLRAAYLLLGNDPLLLQESQDAVRQVAAAQGFEEHHTFSIDPNTDWNAIFSLCQAMSLFASRQTLLLLLPENGPNAAINEQLLTLTGLLHDDLLLIVRGNKLSKAQENAAWFTALANRSVQVTCQTPEQAQLPRWVAARAKQLNLELDDAANQVLCYCYEGNLLALAQALERLSLLWPDGKLTLPRVEQAVNDAAHFTPFHWVDALLMGKSKRALHILQQLRLEGSEPVILLRTLQRELLLLVNLKRQSAHTPLRALFDKHRVWQNRRGMMGEALNRLSQTQLRQAVQLLTRTELTLKQDYGQSVWAELEGLSLLLCHKPLADVFIDG

Key:
[1] = molecular target: T1, γ subunit of the E. coli clamp loader (γ complex) (Escherichia coli, UniProt P06710-2 1-431)
T1 sequence: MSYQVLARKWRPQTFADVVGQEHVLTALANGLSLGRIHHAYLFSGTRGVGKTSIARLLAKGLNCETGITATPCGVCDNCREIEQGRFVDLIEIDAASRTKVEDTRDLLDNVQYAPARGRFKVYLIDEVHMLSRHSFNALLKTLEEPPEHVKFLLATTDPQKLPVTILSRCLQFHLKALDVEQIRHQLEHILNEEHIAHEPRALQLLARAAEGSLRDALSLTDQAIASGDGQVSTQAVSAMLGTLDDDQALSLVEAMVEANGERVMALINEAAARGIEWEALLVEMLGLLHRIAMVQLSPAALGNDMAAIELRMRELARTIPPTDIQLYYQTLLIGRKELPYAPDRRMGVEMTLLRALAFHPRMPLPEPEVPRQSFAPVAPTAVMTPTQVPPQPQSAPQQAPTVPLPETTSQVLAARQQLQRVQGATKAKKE

δ subunit W279A mutant [2] = molecular target: T2, δ subunit W279A mutant (Escherichia coli, UniProt P28630 1-343, W279A)
T2 sequence: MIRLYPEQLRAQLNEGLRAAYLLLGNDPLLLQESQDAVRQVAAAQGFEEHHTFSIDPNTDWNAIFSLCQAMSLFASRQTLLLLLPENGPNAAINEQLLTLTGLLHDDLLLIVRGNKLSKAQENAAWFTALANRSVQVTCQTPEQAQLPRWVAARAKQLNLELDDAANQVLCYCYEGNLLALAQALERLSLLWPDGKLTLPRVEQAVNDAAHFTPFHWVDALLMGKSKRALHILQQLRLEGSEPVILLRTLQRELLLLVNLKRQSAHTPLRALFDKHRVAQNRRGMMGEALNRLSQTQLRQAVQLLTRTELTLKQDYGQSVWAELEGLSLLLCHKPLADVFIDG

δ subunit R277A mutant = molecular target: T3, δ subunit R277A mutant (Escherichia coli, UniProt P28630 1-343, R277A)
T3 sequence: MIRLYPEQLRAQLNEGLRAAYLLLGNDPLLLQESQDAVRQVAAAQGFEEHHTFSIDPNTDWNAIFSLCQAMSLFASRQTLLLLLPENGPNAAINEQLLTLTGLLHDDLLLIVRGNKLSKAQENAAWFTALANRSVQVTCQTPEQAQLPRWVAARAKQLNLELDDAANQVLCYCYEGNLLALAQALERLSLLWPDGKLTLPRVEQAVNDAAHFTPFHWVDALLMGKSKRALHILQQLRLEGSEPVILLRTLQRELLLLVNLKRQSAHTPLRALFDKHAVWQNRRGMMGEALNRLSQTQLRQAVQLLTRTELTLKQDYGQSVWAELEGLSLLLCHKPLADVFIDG

[3] = molecular target: B1
[4] = molecular target: T4, δ subunit W279A/R283A double mutant (Escherichia coli, UniProt P28630 1-343, W279A | R283A)
T4 sequence: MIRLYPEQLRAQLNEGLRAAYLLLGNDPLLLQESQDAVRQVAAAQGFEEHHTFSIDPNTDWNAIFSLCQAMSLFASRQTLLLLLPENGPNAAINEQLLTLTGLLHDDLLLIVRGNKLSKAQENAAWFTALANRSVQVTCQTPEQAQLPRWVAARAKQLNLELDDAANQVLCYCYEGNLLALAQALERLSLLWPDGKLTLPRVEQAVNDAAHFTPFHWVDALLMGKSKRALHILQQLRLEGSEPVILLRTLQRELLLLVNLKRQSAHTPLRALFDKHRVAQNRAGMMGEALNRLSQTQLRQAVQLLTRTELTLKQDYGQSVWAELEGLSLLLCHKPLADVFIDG

δ subunit R283A mutant = molecular target: T5, δ subunit R283A mutant (Escherichia coli, UniProt P28630 1-343, R283A)
T5 sequence: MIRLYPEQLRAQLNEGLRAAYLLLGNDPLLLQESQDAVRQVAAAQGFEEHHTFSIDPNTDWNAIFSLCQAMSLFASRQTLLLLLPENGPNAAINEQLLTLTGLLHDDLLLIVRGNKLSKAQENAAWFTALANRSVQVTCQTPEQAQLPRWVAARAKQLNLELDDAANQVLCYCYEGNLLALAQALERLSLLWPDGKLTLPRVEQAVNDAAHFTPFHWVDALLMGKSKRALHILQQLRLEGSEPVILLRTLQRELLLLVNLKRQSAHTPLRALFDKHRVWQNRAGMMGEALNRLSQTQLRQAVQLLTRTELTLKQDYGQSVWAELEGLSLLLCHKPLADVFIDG

δ subunit W279Y mutant = molecular target: T6, δ subunit W279Y mutant (Escherichia coli, UniProt P28630 1-343, W279Y)
T6 sequence: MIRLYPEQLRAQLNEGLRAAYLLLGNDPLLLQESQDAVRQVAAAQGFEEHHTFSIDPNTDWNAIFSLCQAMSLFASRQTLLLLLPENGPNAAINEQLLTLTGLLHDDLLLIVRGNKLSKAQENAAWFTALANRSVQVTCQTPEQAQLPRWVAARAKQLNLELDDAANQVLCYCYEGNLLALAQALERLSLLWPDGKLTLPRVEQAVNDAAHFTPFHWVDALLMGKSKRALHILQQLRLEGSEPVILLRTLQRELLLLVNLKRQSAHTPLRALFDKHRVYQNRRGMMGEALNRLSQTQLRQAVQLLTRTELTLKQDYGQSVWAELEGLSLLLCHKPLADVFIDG

[5] = molecular target: T7, δ subunit W279A/R277A double mutant (Escherichia coli, UniProt P28630 1-343, R277A | W279A)
T7 sequence: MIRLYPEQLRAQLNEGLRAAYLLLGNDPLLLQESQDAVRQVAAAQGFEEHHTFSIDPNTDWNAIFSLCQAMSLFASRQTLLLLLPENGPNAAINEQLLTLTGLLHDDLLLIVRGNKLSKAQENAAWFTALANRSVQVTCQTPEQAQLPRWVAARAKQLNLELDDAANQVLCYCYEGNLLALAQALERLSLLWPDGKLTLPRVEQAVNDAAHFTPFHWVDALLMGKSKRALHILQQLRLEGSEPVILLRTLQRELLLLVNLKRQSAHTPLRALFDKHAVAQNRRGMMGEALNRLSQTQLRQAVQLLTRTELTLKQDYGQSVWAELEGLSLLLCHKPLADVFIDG

δ subunit W279A mutant [6] = molecular target: T2, δ subunit W279A mutant; remark: listed apart in the source

Measured: binding result

B1
binds: [1]

B2: δ′ subunit of the E. coli clamp loader (γ complex) (natural protein)
chain: MRWYPWLRPDFEKLVASYQAGRGHHALLIQALPGMGDDALIYALSRYLLCQQPQGHKSCGHCRGCQLMQAGTHPDYYTLAPEKGKNTLGVDAVREVTEKLNEHARLGGAKVVWVTDAALLTDAAANALLKTLEEPPAETWFFLATREPERLLATLRSRCRLHYLAPPPEQYAVTWLSREVTMSQDALLAALRLSAGSPGAALALFQGDNWQARETLCQALAYSVPSGDWYSLLAALNHEQAPARLHWLATLLMDALKRHHGAAQVTNVDVPGLVAELANHLSPSRLQAILGDVCHIREQLMSVTGINRELLITDLLLRIEHYLQPGVVLPVPHL
not listed: [1] | δ subunit W279A mutant [6]
binds: all other assays above

B3: χ subunit of the E. coli clamp loader (γ complex) (natural protein)
chain: MKNATFYLLDNDTTVDGLSAVEQLVCEIAAERWRSGKRVLIACEDEKQAYRLDEALWARPAESFVPHNLAGEGPRGGAPVEIAWPQKRSSSRRDILISLRTSFADFATAFTEVVDFVPYEDSLKQLARERYKAYRVAGFNLNTATWK
not listed: [1] | δ subunit W279A mutant [2]
binds: all other assays above

B4: ψ subunit of the E. coli clamp loader (γ complex) (natural protein)
chain: MTSRRDWQLQQLGITQWSLRRPGALQGEIAIAIPAHVRLVMVANDLPALTDPLVSDVLRALTVSPDQVLQLTPEKIAMLPQGSHCNSWRLGTDEPLSLEGAQVASPALTDLRANPTARAALWQQICTYEHDFFPRND
not listed: [1] | δ subunit W279A mutant [2]
binds: all other assays above

From paper PMC2425476 (Nucleic Acids Research, 2008)
